Consider twelve molecules from publication PMC3670694 (Biochemistry, 2013).

B1: LpxK (A. aeolicus LpxK) (Aquifex aeolicus VF5; E100A) (protein)
chain: MLRSSLLPFSYLYEKIINFRNTLYDKGFLKIKKLPVPVISVGNLSVGGSGKTSFVMYLADLLKDKRVCILSRGYKRKSKGTLIVSEYGNLKVSWEEAGDAPYLMAKLLPHVSVVASEDRYKGGLLALEKLSPEVFILDDGFQHRKLHRDLNILLLKKKDLKDRLLPAGNLREPLKEIRRADALVLTYQEVEPFEFFTGKPTFKMFREFCCLLNSDFEEVPFDILKEREVIAFSGLGDNGQFRKVLKNLGIKVKEFMSFPDHYDYSDFTPEEGEIYLTTPKDLIKLQGYENVFALNFKVKLEREEKLKKLIYRIFY
B2: LpxK (A. aeolicus LpxK) (Aquifex aeolicus VF5; S49A) (protein)
chain: MLRSSLLPFSYLYEKIINFRNTLYDKGFLKIKKLPVPVISVGNLSVGGAGKTSFVMYLADLLKDKRVCILSRGYKRKSKGTLIVSEYGNLKVSWEEAGDEPYLMAKLLPHVSVVASEDRYKGGLLALEKLSPEVFILDDGFQHRKLHRDLNILLLKKKDLKDRLLPAGNLREPLKEIRRADALVLTYQEVEPFEFFTGKPTFKMFREFCCLLNSDFEEVPFDILKEREVIAFSGLGDNGQFRKVLKNLGIKVKEFMSFPDHYDYSDFTPEEGEIYLTTPKDLIKLQGYENVFALNFKVKLEREEKLKKLIYRIFY
B3: LpxK (A. aeolicus LpxK) (Aquifex aeolicus VF5; S53A) (protein)
chain: MLRSSLLPFSYLYEKIINFRNTLYDKGFLKIKKLPVPVISVGNLSVGGSGKTAFVMYLADLLKDKRVCILSRGYKRKSKGTLIVSEYGNLKVSWEEAGDEPYLMAKLLPHVSVVASEDRYKGGLLALEKLSPEVFILDDGFQHRKLHRDLNILLLKKKDLKDRLLPAGNLREPLKEIRRADALVLTYQEVEPFEFFTGKPTFKMFREFCCLLNSDFEEVPFDILKEREVIAFSGLGDNGQFRKVLKNLGIKVKEFMSFPDHYDYSDFTPEEGEIYLTTPKDLIKLQGYENVFALNFKVKLEREEKLKKLIYRIFY
B4: LpxK (A. aeolicus LpxK) (Aquifex aeolicus VF5; E100Q) (protein)
chain: MLRSSLLPFSYLYEKIINFRNTLYDKGFLKIKKLPVPVISVGNLSVGGSGKTSFVMYLADLLKDKRVCILSRGYKRKSKGTLIVSEYGNLKVSWEEAGDQPYLMAKLLPHVSVVASEDRYKGGLLALEKLSPEVFILDDGFQHRKLHRDLNILLLKKKDLKDRLLPAGNLREPLKEIRRADALVLTYQEVEPFEFFTGKPTFKMFREFCCLLNSDFEEVPFDILKEREVIAFSGLGDNGQFRKVLKNLGIKVKEFMSFPDHYDYSDFTPEEGEIYLTTPKDLIKLQGYENVFALNFKVKLEREEKLKKLIYRIFY
B5: LpxK (A. aeolicus LpxK) (Aquifex aeolicus VF5; K51A) (protein)
chain: MLRSSLLPFSYLYEKIINFRNTLYDKGFLKIKKLPVPVISVGNLSVGGSGATSFVMYLADLLKDKRVCILSRGYKRKSKGTLIVSEYGNLKVSWEEAGDEPYLMAKLLPHVSVVASEDRYKGGLLALEKLSPEVFILDDGFQHRKLHRDLNILLLKKKDLKDRLLPAGNLREPLKEIRRADALVLTYQEVEPFEFFTGKPTFKMFREFCCLLNSDFEEVPFDILKEREVIAFSGLGDNGQFRKVLKNLGIKVKEFMSFPDHYDYSDFTPEEGEIYLTTPKDLIKLQGYENVFALNFKVKLEREEKLKKLIYRIFY
B6: LpxK (A. aeolicus LpxK) (Aquifex aeolicus VF5; D138A) (protein)
chain: MLRSSLLPFSYLYEKIINFRNTLYDKGFLKIKKLPVPVISVGNLSVGGSGKTSFVMYLADLLKDKRVCILSRGYKRKSKGTLIVSEYGNLKVSWEEAGDEPYLMAKLLPHVSVVASEDRYKGGLLALEKLSPEVFILADGFQHRKLHRDLNILLLKKKDLKDRLLPAGNLREPLKEIRRADALVLTYQEVEPFEFFTGKPTFKMFREFCCLLNSDFEEVPFDILKEREVIAFSGLGDNGQFRKVLKNLGIKVKEFMSFPDHYDYSDFTPEEGEIYLTTPKDLIKLQGYENVFALNFKVKLEREEKLKKLIYRIFY
B7: LpxK (A. aeolicus LpxK) (Aquifex aeolicus VF5; H261A) (protein)
chain: MLRSSLLPFSYLYEKIINFRNTLYDKGFLKIKKLPVPVISVGNLSVGGSGKTSFVMYLADLLKDKRVCILSRGYKRKSKGTLIVSEYGNLKVSWEEAGDEPYLMAKLLPHVSVVASEDRYKGGLLALEKLSPEVFILDDGFQHRKLHRDLNILLLKKKDLKDRLLPAGNLREPLKEIRRADALVLTYQEVEPFEFFTGKPTFKMFREFCCLLNSDFEEVPFDILKEREVIAFSGLGDNGQFRKVLKNLGIKVKEFMSFPDAYDYSDFTPEEGEIYLTTPKDLIKLQGYENVFALNFKVKLEREEKLKKLIYRIFY
B8: LpxK (A. aeolicus LpxK) (Aquifex aeolicus VF5; D99A) (protein)
chain: MLRSSLLPFSYLYEKIINFRNTLYDKGFLKIKKLPVPVISVGNLSVGGSGKTSFVMYLADLLKDKRVCILSRGYKRKSKGTLIVSEYGNLKVSWEEAGAEPYLMAKLLPHVSVVASEDRYKGGLLALEKLSPEVFILDDGFQHRKLHRDLNILLLKKKDLKDRLLPAGNLREPLKEIRRADALVLTYQEVEPFEFFTGKPTFKMFREFCCLLNSDFEEVPFDILKEREVIAFSGLGDNGQFRKVLKNLGIKVKEFMSFPDHYDYSDFTPEEGEIYLTTPKDLIKLQGYENVFALNFKVKLEREEKLKKLIYRIFY
B9: LpxK (A. aeolicus LpxK) (Aquifex aeolicus VF5; D139A) (protein)
chain: MLRSSLLPFSYLYEKIINFRNTLYDKGFLKIKKLPVPVISVGNLSVGGSGKTSFVMYLADLLKDKRVCILSRGYKRKSKGTLIVSEYGNLKVSWEEAGDEPYLMAKLLPHVSVVASEDRYKGGLLALEKLSPEVFILDAGFQHRKLHRDLNILLLKKKDLKDRLLPAGNLREPLKEIRRADALVLTYQEVEPFEFFTGKPTFKMFREFCCLLNSDFEEVPFDILKEREVIAFSGLGDNGQFRKVLKNLGIKVKEFMSFPDHYDYSDFTPEEGEIYLTTPKDLIKLQGYENVFALNFKVKLEREEKLKKLIYRIFY
B10: LpxK (A. aeolicus LpxK) (Aquifex aeolicus VF5; T52A) (protein)
chain: MLRSSLLPFSYLYEKIINFRNTLYDKGFLKIKKLPVPVISVGNLSVGGSGKASFVMYLADLLKDKRVCILSRGYKRKSKGTLIVSEYGNLKVSWEEAGDEPYLMAKLLPHVSVVASEDRYKGGLLALEKLSPEVFILDDGFQHRKLHRDLNILLLKKKDLKDRLLPAGNLREPLKEIRRADALVLTYQEVEPFEFFTGKPTFKMFREFCCLLNSDFEEVPFDILKEREVIAFSGLGDNGQFRKVLKNLGIKVKEFMSFPDHYDYSDFTPEEGEIYLTTPKDLIKLQGYENVFALNFKVKLEREEKLKKLIYRIFY

Substrate in the first data set: Nc1ncnc2c1ncn2[C@@H]1O[C@H](COP(=O)(O)OP(=O)(O)OP(=O)(O)O)[C@@H](O)[C@H]1O
Put plainly: cells, lysate or membranes. To be noted: ATP/Mg2+ 1:1, 50 µM DSMP, pH 8.5, 30 °C, Triton X-100.
In the case of B1, the Km stood at 1900 ± 500 µM and the kcat entry is on record as “(2.9 ± 0.2)×10^−3 sec^−1”.
For B2, the Km is 2700 ± 300 µM and the kcat came out at 3.9 ± 0.1 s⁻¹.
Consider B3, for which the Michaelis constant (Km) amounted to 6000 ± 1000 µM and the kcat result is reported as “(4.7 ± 0.6)×10^−1 sec^−1”.
The matching figures for B4: 2900 ± 400 µM and “(4.8 ± 0.2)×10^−4 sec^−1”.
On to B5, for which the Michaelis constant (Km) is 1500 ± 400 µM and the kcat result is given as “(1.3 ± 0.1)×10^−3 sec^−1”.
For the molecule B6, the Km was found to be 4000 ± 600 µM and the kcat entry is recorded as “(8.3 ± 0.4)×10^−4 sec^−1”.
For B7, the Michaelis-Menten constant (Km) was 1300 ± 200 µM and the kcat entry is reported as “(4.6 ± 0.2)×10^−3 sec^−1”.
Consider B8, for which the Km was 2800 ± 500 µM and the kcat result is “(1.5 ± 0.1)×10^−3 sec^−1”.
As to B9, the Km turned out to be 5000 ± 1000 µM and the kcat result is “(4.8 ± 0.5)×10^−4 sec^−1”.
The matching figures for B10: 2200 ± 300 µM and “(1.3 ± 0.1)×10^−3 sec^−1”.

For a further data set, the target named is T1, LpxK (A. aeolicus LpxK) (Aquifex aeolicus, UniProt O67572).
Assay: not given
To be noted: co-crystal, 10 mM ATP, 1 mM EDTA, no Mg; open conformation, bent ATP.
Turning to `Nc1ncnc2c1ncn2[C@@H]1O[C@H](COP(=O)(O)OP(=O)(O)OP(=O)(O)O)[C@@H](O)[C@H]1O` [ATP], the “X-ray crystal structure, 2.2 Å” value is reported as “Rod-shaped crystals were obtained which surprisingly showed ATP bound in the open form”.

A further data set deals with T1, LpxK (A. aeolicus LpxK).
Assay: not given
To be noted: co-crystal, 4.3 mM AMP-PCP, 1 mM EDTA; active site, closed conformation.
In the case of `Nc1ncnc2c1ncn2[C@@H]1O[C@H](COP(=O)(O)OP(=O)(O)CP(=O)(O)O)[C@@H](O)[C@H]1O` [AMP-PCP, 5'-adenylyl (β, γ-methylene)diphosphonate], the “X-ray crystal structure, 2.1 Å” value is “co-crystals in complex with the non-hydrolizable analog AMP-PCP were generated and the structure solved”.
